Results on five substances are retold here after patent US7482376B2, “Conjugated complement cascade inhibitors” (3-Dimensional Pharmaceuticals, Inc., priority 2003, dated 2009).

Sequences of proteins named here, by UniProt entry; tags and fusion partners are left off. Residues count along the entry.
UniProt P09871, 16-437 limits assumed: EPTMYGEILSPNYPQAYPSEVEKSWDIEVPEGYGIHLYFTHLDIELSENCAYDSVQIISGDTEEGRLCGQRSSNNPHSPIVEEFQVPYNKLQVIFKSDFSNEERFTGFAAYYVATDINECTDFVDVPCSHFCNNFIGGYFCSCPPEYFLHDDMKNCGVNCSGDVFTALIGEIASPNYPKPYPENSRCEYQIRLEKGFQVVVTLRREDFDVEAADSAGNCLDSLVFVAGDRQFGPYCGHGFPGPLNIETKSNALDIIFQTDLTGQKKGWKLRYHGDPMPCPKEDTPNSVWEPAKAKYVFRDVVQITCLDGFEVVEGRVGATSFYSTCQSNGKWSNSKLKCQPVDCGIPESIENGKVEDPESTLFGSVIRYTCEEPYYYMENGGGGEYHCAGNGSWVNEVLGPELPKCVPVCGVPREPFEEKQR
UniProt P09871, 438-688 limits assumed: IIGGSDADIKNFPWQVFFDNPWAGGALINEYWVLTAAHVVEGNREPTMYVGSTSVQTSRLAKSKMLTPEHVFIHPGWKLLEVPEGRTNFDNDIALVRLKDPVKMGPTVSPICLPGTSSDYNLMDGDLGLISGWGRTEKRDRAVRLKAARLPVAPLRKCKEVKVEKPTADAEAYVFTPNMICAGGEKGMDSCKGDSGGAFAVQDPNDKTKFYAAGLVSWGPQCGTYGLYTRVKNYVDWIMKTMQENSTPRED
UniProt O00187, 300-444: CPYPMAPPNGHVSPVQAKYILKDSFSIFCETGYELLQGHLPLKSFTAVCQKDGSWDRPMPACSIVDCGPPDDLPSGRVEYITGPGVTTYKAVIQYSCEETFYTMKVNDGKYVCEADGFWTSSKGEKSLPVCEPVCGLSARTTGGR
UniProt O00187, 445-686: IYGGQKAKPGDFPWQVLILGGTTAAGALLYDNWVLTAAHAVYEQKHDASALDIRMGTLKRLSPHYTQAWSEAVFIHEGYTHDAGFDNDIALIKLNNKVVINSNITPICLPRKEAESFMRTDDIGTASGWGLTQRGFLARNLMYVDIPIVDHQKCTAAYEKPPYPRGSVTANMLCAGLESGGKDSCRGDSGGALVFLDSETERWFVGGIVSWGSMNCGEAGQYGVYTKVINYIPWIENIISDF

Assay [1] concerns the target Activated human C1s (Homo sapiens, UniProt P09871). Particulars: read-out: hC1s Ki corr.; Ki app corrected for substrate concentration (45 μM, Km=78 μM); 37° C., pH 7.5. On the procedure:
Reagents: All buffer salts were obtained from Sigma Chemical Company (St. Louis, Mo.), and were of the highest purity available. DTNB was purchased from Pierce (Rockford, Ill.). Z-Gly-Arg-S-Bzl was purchased from Enzyme Systems Products (Livermore, Calif.). Activated human C1s was purchased from Calbiochem (La Jolla, Calif.).
(§1) Reactions were initiated by the addition of a 10 μL aliquot of the enzyme, and the absorbance increase at 405 nm is continuously recorded for 15 minutes in a Molecular Devices plate reader. […] The ratio of the velocity (rate of change in absorbance as a function of time) for a sample containing no test compound is divided by the velocity of a sample containing test compound, and is plotted as a function of test compound concentration. The data are fit to a linear regression, and the value of the slope of the line calculated.

Assay [2] has as its target Autoactivated 2-chain human MASP-2 (His-tag, Cys300-Phe686) (Homo sapiens, UniProt O00187). The settings on record: read-out: MASP-2 Ki corr.; Ki app corrected for substrate concentration (45 μM, Km=8.6 μM); 37° C., pH 7.5. On the procedure: Reagents: All buffer salts were obtained from Sigma Chemical Company (St. Louis, Mo.), and were of the highest purity available. DTNB was purchased from Pierce (Rockford, Ill.). Z-Gly-Arg-S-Bzl was purchased from Enzyme Systems Products (Livermore, Calif.).
as §1

Turning to “Conjugation with a bisubstituted-PEG20K-(NH2)2 of 6-[3′(5-Carbamimidoyl-2-methylsulfanyl-thiophene-3-sulfonyl)-4-guanidino-6-methyl-biphenyl-2-ylcarbamoyl]-hexanoic acid tetra-trifluoroacetate [Example 8]”, the Ki in assay [1] worked out at 29 nM.

For the substance “Tetravalent PEG 2′-urea conjugate of 4-(2′-amino-4′-guanidino-6′-methyl-biphenyl-3-sulfonyl)-5-methylsulfanyl-thiophene-2-carboxamidine (octa)-trifluoroacetate [Example 13]”, the Ki in assay [1] came out at 18 nM. Take “mPEG20K 2′-urea of 4-(2′-amino-4 ′-guanidino-6′-methyl-biphenyl-3-sulfonyl)-5-methylsulfanyl-thiophene-2-carboxamidine bis-trifluoroacetate [Example 5]”: the figures for the Ki in assay [2] and in assay [1] were 220 nM and 82 nM, respectively. With “mPEG20K Amide of 3-{[3′-(5-Carbamimidoyl-2-methylsulfanyl-thiophene-3-sulfonyl)-4-guanidino-6-methyl-biphenyl-2-ylcarbamoyl]-methylsulfanyl}-propionic acid bis-trifluoracetate [Example 6]”, the Ki in assay [1] was 85 nM. In the case of “mPEG20K Amide of 6-{3-[3′-(5-Carbamimidoyl-2-methylsulfanyl-thiophene-3-sulfonyl)-4-guanidino-6-methyl-biphenyl-2-yl]-ureido}-hexanoic acid bis-trifluoroacetate [Example 2]”, the Ki in assay [2] was 310 nM; in assay [1] it was 76 nM.
